Measured values published in EP1903056A2, “HLA-A1, -A2 -A3, -A24, -B7, and -B44 tumor associated antigen peptides and compositions” (priority 2002, dated 2004).
“Also recorded” adds a separate entry of the source.

Tests used:
[1] = test system: A3 supertype family (A*0301, A*1101, A*3101, A*3301, and A*6801); experiment: A3 supertype cross-binding (alleles bound); set-up: species or system human; conditions: for Number of A3 alleles crossbound: Table 16a
[2] = test system: Wildtype-pulsed EHM target cell line; experiment: Primary CTL induction cultures, HLA-A3 peptides: peptide-pulsed targets (51Cr release or in situ IFNγ ELISA); assay type: cell-based, human; conditions: result in words
[3] = test system: Tumor target cell line (SW403, SW480, 624mel, 938mel, SW403 transfected with p53); experiment: Primary CTL induction cultures, HLA-A3 peptides: tumor target recognition; assay type: cell-based, human; conditions: result in words
[4] = biological target: A*1101 (Homo sapiens, UniProt P04439, A114D/D185E/E176A/F33Y/L180Q/S129P/T187R); experiment: Class I peptide-binding assay, A*1101; conditions: Table 16a
[5] = biological target: A*3101 (Homo sapiens, UniProt P04439, A270S/D185E/E176V/E277Q/F33T/G231S/G80R/H175R/I121M/I218V/I322F/K168Q/L300P/L318F/M331R/P217A/Q94H/R138Q/T323A/T345S/T97I/V358M); experiment: Class I peptide-binding assay, A*3101; conditions: Table 16a; read-out: HLA Binding (IC50 nM) A*3101
[6] = biological target: A*3301 (Homo sapiens, UniProt P04439, A270S/D185E/E176V/E277Q/E87N/F33T/G231S/H175R/I121M/I218V/I322F/K168Q/K210R/L300P/L318F/M331R/P217A/Q86R/Q94H/R138Q/T323A/T345S/T97I/V358M/Y195H); experiment: Class I peptide-binding assay, A*3301; conditions: Table 16a; read-out: HLA Binding (IC50 nM) A*3301
[7] = biological target: A*6801 (Homo sapiens, UniProt P04439, A269V/D185E/E176V/E277Q/E87N/F33Y/G231S/I121M/I166T/I218V/L180W/L300P/L318F/N151K/P208A/P217A/Q86R/R169H/T345S); experiment: Class I peptide-binding assay, A*6801; conditions: Table 16a; read-out: HLA Binding (IC50 nM) A*6801
[8] = test system: peptide-pulsed target cells; experiment: In vitro primary CTL induction, A2 peptides: recognition of peptide-pulsed targets (chromium release or IFNγ ELISA); assay type: cell-based, human; conditions: Table 6, number of donors yielding a positive response/ total tested
[9] = test system: PBMC from three healthy donors; experiment: In vitro primary immunization of PBMC, T cell proliferation (3H-thymidine incorporation); assay type: cell-based, human
[10] = test system: HLA-DR molecules; conditions: 16 of the most prevalent HLA-DR molecules tested; cited from earlier work
[11] = biological target: B*1801 (Homo sapiens, UniProt P01889, A329T/A93T/A95T/C349S/D201E/D54G/D98Y/E176V/E187T/E204Q/E69T/K202T/Q94N/R155S/R180L/S121R/V306I/Y140S/Y195H/Y33H/Y91S); experiment: B44 supertype peptide binding, B*1801; conditions: HER 2/neu-derived B44 peptides, Table 27
[12] = biological target: B*4001(B60) (Homo sapiens, UniProt P01889, A65T/A93T/A95T/D138N/D98Y/E176V/E69K/N87E/Q56L/Q94N/R180L/S121R/S35A/S48T/T167S/V36M/W171L/Y33H/Y91S); experiment: B44 supertype peptide binding, B*4001; conditions: HER 2/neu-derived B44 peptides, Table 27; read-out: B* 4001
[13] = biological target: B*4501 (Homo sapiens, UniProt P01889, A329T/A65T/A93T/A95T/C349S/D138N/D201E/D98Y/E176V/E187L/E204Q/E69K/H137Y/K202T/L119W/N87E/Q56L/Q94N/R155S/R180D/S121R/S35A/S48T/V127L/V306I/V36M/W191S/Y140L/Y33H/Y91S); experiment: B44 supertype peptide binding, B*4501; conditions: HER 2/neu-derived B44 peptides, Table 27; read-out: B* 4501
[14] = test system: B44 supertype (B*1801, B*4001, B*4002, B*4402, B*4403, B*4501); experiment: B44 supertype cross-binding (degeneracy, number of alleles bound); set-up: species or system human; conditions: number of the six B44 supertype alleles bound

## CC(C)C[C@H](NC(=O)[C@@H](N)Cc1c[nH]cn1)C(=O)N[C@@H](Cc1ccccc1)C(=O)NCC(=O)N[C@@H](Cc1ccc(O)cc1)C(=O)N[C@@H](CO)C(=O)N[C@@H](Cc1c[nH]c2ccccc12)C(=O)N[C@@H](Cc1ccc(O)cc1)C(=O)N[C@@H](CCCCN)C(=O)O [CEA.61]
[1]
  Number of A3 alleles crossbound: 5
[1]; of 5 alleles, affinity ≤500nM
  number of A3 superfamily alleles bound: five
[1]; read-out: binding affinity to the alleles of the A3 superfamily stated as bound
  IC50: ≤ 50 nM
[2]
  in vitro immunogenicity: CTL induction, recognition of peptide-pulsed targets: immunogenic
[3]
  recognition of tumor / endogenous targets by induced CTLs: generated by natural processing; also recorded: induce tumor-reactive CTLs; also recorded: recognize endogenous targets

## CC(C)C[C@H](NC(=O)[C@@H](NC(=O)[C@@H](N)CCCNC(=N)N)C(C)C)C(=O)N[C@H](C(=O)N[C@@H](CC(C)C)C(=O)N[C@@H](Cc1ccccc1)C(=O)N[C@@H](CC(N)=O)C(=O)N[C@H](C(=O)N[C@H](C(=O)N[C@@H](CCCNC(=N)N)C(=O)O)[C@@H](C)O)C(C)C)[C@@H](C)O [CEA.554.V2]
[4]
  IC50: 94 nM
[5]
  IC50: 9 nM
[6]
  IC50: 7630 nM
[7]
  IC50: 42 nM
[1]
  Number of A3 alleles crossbound: 4
[1]; result in words
  change of A3 supertype binding of analog compared to wildtype peptide: no improvement in binding capacity

## CC[C@H](C)[C@H](NC(=O)[C@@H](N)CCCCN)C(=O)N[C@@H](Cc1ccccc1)C(=O)NCC(=O)N[C@@H](CO)C(=O)N[C@@H](CC(C)C)C(=O)N[C@@H](C)C(=O)N[C@@H](Cc1ccccc1)C(=O)N[C@@H](CC(C)C)C(=O)O [Her2/neu.369]
[8]; targets pulsed with the peptide itself
  CTL Sequence: 10/11
[8]; wild-type sequence
  CTL Wild-type Sequence: 10/11

## CC(C)C[C@H](NC(=O)[C@@H](N)C(C)C)C(=O)N[C@@H](CCCNC(=N)N)C(=O)N[C@@H](CCC(=O)O)C(=O)N[C@@H](CC(N)=O)C(=O)N[C@H](C(=O)N[C@@H](CO)C(=O)N1CCC[C@H]1C(=O)N[C@@H](CCCCN)C(=O)O)[C@@H](C)O [Her2/neu.754]
[2]
  in vitro immunogenicity: CTL induction, recognition of peptide-pulsed targets: immunogenic
[3]
  recognition of tumor / endogenous targets by induced CTLs: induce tumor-reactive CTLs

## CC[C@H](C)[C@H](NC(=O)CNC(=O)[C@@H](NC(=O)[C@H](Cc1ccccc1)NC(=O)[C@H](CCCCN)NC(=O)[C@H](CO)NC(=O)[C@H](CC(N)=O)NC(=O)[C@H](C)NC(=O)[C@H](CCCCN)NC(=O)[C@@H](NC(=O)[C@H](Cc1ccc(O)cc1)NC(=O)[C@@H](N)CCC(N)=O)[C@@H](C)CC)[C@@H](C)CC)C(=O)N[C@H](C(=O)N[C@@H](CCC(=O)O)C(=O)O)[C@@H](C)O [TT 830-843]
[9]
  antigen concentration at which the 10,000 cpm proliferation level was reached: about 10,000 ng/ml
  donors with primary T cell responses: 2 out of 3
[10]
  number of HLA-DR molecules bound: seven of 16

## CC[C@H](C)[C@H](NC(=O)[C@H](CCC(=O)O)NC(=O)[C@@H](N)CCCNC(=N)N)C(=O)N1CCC[C@H]1C(=O)N[C@@H](CC(=O)O)C(=O)N[C@@H](CC(C)C)C(=O)N[C@@H](CC(C)C)C(=O)N[C@@H](CCC(=O)O)C(=O)N[C@@H](CCCCN)C(=O)NCC(=O)O [compound 564]
[11]
  IC50: 649 nM
[12]
  IC50: 4490 nM
[13]
  IC50: 1980 nM
[14]
  Degeneracy: 1
